Measured values from US11271238B2, “Applications of low-cost, thermal and electrochemically stable organic compounds as high performance redox active materials in redox flow batteries” (Utah State University, priority 2018, dated 2022).

Experiment: Aqueous solubility
Assay type: physicochemical
Settings: in H2O

- solubility in water: 3.0 m
Substance: N, N, N, 2, 2, 6, 6-Heptamethylpiperidinyloxy-4-ammonium Chloride [N^Me-TEMPO, reference compound]
